From patent US10072026B2, “Crystalline form of 3-((1R,3s,5S)-3-((7-((5-methyl-1H-pyrazol-3-yl)amino)-1,6-naphthyridin-5-yl)amino)-8-azabicyclo[3.2.1]octan-8-yl)propanenitrile” (priority 2015, dated 2018)

By UniProt entry, the sequences of proteins in these tests, tags left out. Where a name states a change or a piece, a line headed by the entry shows the natural chain unless it says otherwise.
UniProt O60674: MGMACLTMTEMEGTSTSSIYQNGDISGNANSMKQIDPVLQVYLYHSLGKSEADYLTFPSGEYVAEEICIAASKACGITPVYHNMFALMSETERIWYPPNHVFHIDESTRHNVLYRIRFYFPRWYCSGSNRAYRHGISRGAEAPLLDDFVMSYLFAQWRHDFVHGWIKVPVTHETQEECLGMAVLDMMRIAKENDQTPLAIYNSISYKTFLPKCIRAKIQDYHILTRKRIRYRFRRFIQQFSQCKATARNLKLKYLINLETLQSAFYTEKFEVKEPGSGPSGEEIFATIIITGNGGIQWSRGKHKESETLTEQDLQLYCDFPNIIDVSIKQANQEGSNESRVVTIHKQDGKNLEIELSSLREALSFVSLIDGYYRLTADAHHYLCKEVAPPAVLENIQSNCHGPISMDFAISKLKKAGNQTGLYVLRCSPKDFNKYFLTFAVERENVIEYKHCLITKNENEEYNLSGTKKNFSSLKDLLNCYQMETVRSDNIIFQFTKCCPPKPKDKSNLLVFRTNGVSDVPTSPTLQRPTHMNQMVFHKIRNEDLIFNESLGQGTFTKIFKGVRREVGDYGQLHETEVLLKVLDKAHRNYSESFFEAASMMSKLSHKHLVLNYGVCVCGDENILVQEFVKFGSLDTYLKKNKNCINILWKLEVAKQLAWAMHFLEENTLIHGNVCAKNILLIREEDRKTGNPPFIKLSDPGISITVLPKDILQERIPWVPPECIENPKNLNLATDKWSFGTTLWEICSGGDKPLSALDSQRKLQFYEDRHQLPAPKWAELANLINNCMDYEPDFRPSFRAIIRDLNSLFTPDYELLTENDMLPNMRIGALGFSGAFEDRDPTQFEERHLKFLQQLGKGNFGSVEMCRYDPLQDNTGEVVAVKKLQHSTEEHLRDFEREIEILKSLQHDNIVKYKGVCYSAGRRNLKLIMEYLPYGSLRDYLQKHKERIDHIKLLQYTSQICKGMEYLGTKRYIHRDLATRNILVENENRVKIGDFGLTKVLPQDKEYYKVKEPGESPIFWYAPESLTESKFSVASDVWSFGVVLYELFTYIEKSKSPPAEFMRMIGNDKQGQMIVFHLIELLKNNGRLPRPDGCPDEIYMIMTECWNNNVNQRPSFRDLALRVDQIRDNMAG
UniProt P29597: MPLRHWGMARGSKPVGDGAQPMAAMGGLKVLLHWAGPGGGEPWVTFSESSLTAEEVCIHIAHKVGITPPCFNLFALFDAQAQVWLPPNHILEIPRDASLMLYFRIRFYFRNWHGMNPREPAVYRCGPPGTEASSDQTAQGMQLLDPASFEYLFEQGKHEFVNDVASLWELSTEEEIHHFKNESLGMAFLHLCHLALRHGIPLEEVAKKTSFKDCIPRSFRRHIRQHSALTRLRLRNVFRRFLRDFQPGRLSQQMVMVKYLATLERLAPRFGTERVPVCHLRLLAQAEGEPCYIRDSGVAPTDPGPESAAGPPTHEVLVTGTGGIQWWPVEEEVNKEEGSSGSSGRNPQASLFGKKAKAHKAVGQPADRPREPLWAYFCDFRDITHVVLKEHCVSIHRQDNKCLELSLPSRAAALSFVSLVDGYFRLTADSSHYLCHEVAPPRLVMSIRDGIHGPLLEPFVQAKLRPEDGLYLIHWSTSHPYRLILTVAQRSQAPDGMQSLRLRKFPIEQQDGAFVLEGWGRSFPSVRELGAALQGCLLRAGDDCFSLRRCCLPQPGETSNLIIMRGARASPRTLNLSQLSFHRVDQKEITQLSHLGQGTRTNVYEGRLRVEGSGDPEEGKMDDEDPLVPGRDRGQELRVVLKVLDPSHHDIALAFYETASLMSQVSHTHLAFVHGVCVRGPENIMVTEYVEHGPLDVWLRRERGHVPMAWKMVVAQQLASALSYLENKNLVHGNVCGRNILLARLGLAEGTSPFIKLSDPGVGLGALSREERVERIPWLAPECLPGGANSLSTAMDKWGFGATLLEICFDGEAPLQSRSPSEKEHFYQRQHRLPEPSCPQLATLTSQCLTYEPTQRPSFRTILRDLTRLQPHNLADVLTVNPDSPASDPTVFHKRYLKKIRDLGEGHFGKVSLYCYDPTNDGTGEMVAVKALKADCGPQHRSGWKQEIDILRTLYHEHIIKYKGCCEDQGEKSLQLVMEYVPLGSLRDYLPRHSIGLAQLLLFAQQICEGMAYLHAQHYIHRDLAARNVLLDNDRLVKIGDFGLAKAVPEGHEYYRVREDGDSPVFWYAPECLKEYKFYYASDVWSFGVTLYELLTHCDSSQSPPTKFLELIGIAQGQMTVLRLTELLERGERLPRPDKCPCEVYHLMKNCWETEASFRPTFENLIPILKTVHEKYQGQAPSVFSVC
UniProt P23458: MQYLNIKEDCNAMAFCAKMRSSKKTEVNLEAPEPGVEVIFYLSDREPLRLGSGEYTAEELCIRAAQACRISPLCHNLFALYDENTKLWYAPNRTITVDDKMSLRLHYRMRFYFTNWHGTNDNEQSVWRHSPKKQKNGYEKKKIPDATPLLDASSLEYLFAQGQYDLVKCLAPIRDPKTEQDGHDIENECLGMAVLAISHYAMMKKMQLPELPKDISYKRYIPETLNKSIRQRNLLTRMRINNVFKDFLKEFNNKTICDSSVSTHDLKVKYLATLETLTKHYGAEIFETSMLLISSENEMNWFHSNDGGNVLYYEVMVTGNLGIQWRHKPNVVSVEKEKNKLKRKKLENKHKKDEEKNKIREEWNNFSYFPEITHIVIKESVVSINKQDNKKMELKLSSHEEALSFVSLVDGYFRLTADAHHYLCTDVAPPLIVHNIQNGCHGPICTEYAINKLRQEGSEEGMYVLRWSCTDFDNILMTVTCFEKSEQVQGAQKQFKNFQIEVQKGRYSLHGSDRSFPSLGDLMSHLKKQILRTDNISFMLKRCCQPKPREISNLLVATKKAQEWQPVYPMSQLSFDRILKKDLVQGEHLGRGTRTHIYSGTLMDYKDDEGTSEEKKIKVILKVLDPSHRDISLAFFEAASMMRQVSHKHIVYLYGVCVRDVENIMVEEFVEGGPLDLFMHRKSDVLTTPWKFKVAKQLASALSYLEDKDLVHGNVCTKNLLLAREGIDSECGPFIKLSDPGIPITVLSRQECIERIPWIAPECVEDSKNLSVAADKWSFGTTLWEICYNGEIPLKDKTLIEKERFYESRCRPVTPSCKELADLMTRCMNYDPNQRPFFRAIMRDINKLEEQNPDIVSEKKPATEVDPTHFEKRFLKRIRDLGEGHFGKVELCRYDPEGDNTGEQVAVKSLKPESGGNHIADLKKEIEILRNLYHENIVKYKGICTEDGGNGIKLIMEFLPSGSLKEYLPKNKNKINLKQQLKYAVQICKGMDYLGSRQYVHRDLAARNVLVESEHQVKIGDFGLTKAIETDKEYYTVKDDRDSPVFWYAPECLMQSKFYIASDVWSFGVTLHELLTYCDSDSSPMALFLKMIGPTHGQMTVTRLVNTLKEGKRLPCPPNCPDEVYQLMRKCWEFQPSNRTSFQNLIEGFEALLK

Assays:
[1] = molecular target: JAK2 (Homo sapiens (Human), UniProt O60674); assay: LanthaScreen JAK biochemical assay (JAK2)
[2] = molecular target: Tyk2 (Homo sapiens (Human), UniProt P29597); assay: LanthaScreen JAK biochemical assay (Tyk2)
[3] = molecular target: JAK3 (Homo sapiens (Human), UniProt P52333); assay: LanthaScreen JAK biochemical assay (JAK3)
[4] = molecular target: JAK1 (Homo sapiens (Human), UniProt P23458); assay: LanthaScreen JAK biochemical assay (JAK1)
[5] = read-out: Tyk 2 (pKi) (converted)

Compound | Ki [1] [nM] | Ki [2] [nM] | further results
COC(=O)c1cnc2cc(Nc3cc(C)[nH]n3)nc(N[C@@H]3C[C@H]4CC[C@@H](C3)N4C3CCCOC3=O)c2c1 (stereo partly drawn) [Example 16, Methyl 7-((5-methyl-1H-pyrazol-3-yl)amino)-5-(((1R,3s,5S)-8-(2-oxotetrahydro-2H-pyran-3-yl)-8-azabicyclo[3.2.1]octan-3-yl)amino)-1,6-naphthyridine-3-carboxylate] | 1 to 100 |  | 
Cc1cc(Nc2cc3nc(CN4CCN(C)CC4)ccc3c(N[C@@H]3C[C@H]4CC[C@@H](C3)N4S(=O)(=O)c3cncc(F)c3)n2)n[nH]1 [Example 5-40] |  | 1 to 100 | 
Cc1cc(Nc2cc3nc(CN4CCC(F)(F)CC4)ccc3c(N[C@@H]3C[C@H]4CC[C@@H](C3)N4CC(F)(F)F)n2)n[nH]1 [Example 5-33] | 0.1 to 1 |  | 
COC(=O)c1cnc2cc(Nc3cc(C)[nH]n3)nc(N[C@@H]3C[C@H]4CC[C@@H](C3)N4S(C)(=O)=O)c2c1 [Example 6-33] |  |  | Ki [3]: 1 to 100 nM
CCN1CC(S(=O)(=O)N2[C@@H]3CC[C@H]2C[C@H](Nc2nc(Nc4cc(C)[nH]n4)cc4ncccc24)C3)C1 [Example 4-10] |  |  | Ki [2, 5]: 1 to 100 nM
CCC1(S(=O)(=O)N2[C@@H]3CC[C@H]2C[C@H](Nc2nc(Nc4cc(C)[nH]n4)cc4nc(CN5CCC(F)(F)CC5)ccc24)C3)CC1 [Example 5-32] | 0.1 to 1 |  | Ki [4]: 0.1 to 1 nM
COc1cnc2cc(Nc3cc(C)[nH]n3)nc(N[C@@H]3C[C@H]4CC[C@@H](C3)N4CC(F)(F)F)c2c1 [Example 6-17] | 1 to 100 |  | 
COCCS(=O)(=O)N1[C@@H]2CC[C@H]1C[C@H](Nc1nc(Nc3cc(C)[nH]n3)cc3ncccc13)C2 [Example 6, N^5-((1R,3s,5S)-8-((2-methoxyethyl)sulfonyl)-8-azabicyclo[3.2.1]octan-3-yl)-N^7-(5-methyl-1H-pyrazol-3-yl)-1,6-naphthyridine-5,7-diamine] |  | 1 to 100 | 
Cc1cc(Nc2cc3ncccc3c(N[C@@H]3C[C@H]4CC[C@@H](C3)N4S(=O)(=O)C3CNC3)n2)n[nH]1 [Example 4-9] |  | 1 to 100 | 
Cc1cc(Nc2cc3ncccc3c(N[C@@H]3C[C@H]4CC[C@@H](C3)N4S(=O)(=O)c3ccccn3)n2)n[nH]1 [Example 4-14] | 1 to 100 |  | Ki [4]: 1 to 100 nM; Ki [2, 5]: 1 to 100 nM
Cc1cc(Nc2cc3nc(CN4CCOCC4)ccc3c(N[C@@H]3C[C@H]4CC[C@@H](C3)N4CC(F)(F)F)n2)n[nH]1 [Example 15, N^7-(5-methyl-1H-pyrazol-3-yl)-2-(morpholinomethyl)-N^5-((1R,3s,5S)-8-(2,2,2-trifluoroethyl)-8-azabicyclo[3.2.1]octan-3-yl)-1,6-naphthyridine-5,7-diamine] |  | 0.1 to 1 | Ki [3]: 0.1 to 1 nM
Cc1cc(Nc2cc3ncccc3c(N[C@@H]3C[C@H]4CC[C@@H](C3)N4C(=O)C(F)F)n2)n[nH]1 [Example 5, 2,2-difluoro-1-((1R,3s,5S)-3-((7-((5-methyl-1H-pyrazol-3-yl)amino)-1,6-naphthyridin-5-yl)amino)-8-azabicyclo[3.2.1]octan-8-yl)ethan-1-one] | 1 to 100 |  | 
Cc1cc(Nc2cc3nc(CO)ccc3c(N[C@@H]3C[C@H]4CC[C@@H](C3)N4S(C)(=O)=O)n2)n[nH]1 [Example 5-12] |  |  | Ki [3]: 1 to 100 nM
Cc1cc(Nc2cc3ncccc3c(N[C@@H]3C[C@H]4CCC[C@@H](C3)N4S(=O)(=O)c3cccnc3)n2)n[nH]1 [Example 8, N^7-(5-methyl-1H-pyrazol-3-yl)-N^5-((1R,3s,5S)-9-(pyridin-3-ylsulfonyl)-9-azabicyclo[3.3.1]nonan-3-yl)-1,6-naphthyridine-5,7-diamine] |  | 0.1 to 1 | 
Cc1cc(Nc2cc3ncccc3c(N[C@@H]3C[C@H]4CC[C@@H](C3)N4S(=O)(=O)N3CCC3)n2)n[nH]1 [Example 4-6] |  |  | Ki [2, 5]: 1 to 100 nM
Cc1cc(Nc2cc3ncccc3c(N[C@@H]3C[C@H]4CC[C@@H](C3)N4S(=O)(=O)c3cccnc3)n2)n[nH]1 [Example 3, N^7-(5-methyl-1H-pyrazol-3-yl)-N^5-((1R,3s,5S)-8-(pyridin-3-ylsulfonyl)-8-azabicyclo[3.2.1]octan-3-yl)-1,6-naphthyridine-5,7-diamine] |  | 1 to 100 | 

Read-outs that look alike come from different tables or passages of the source.
